From publication PMC9131926, “The Regulatory Protein ChuP Connects Heme and Siderophore-Mediated Iron Acquisition Systems Required for Chromobacterium violaceum Virulence” (Frontiers in Cellular and Infection Microbiology, 2022)

The chains behind the UniProt entries cited, without tags or fusion partners.
UniProt Q7NR89, entry or part of it: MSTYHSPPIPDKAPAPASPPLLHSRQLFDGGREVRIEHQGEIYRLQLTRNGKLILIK

Biological target: T1, ChuP (His-ChuP) (Chromobacterium violaceum, UniProt Q7NR89)
T1 construct: gene CV_3895
Assay: biochemical

Structure (SMILES): C=CC1=C(C)C2=Cc3c(C=C)c(C)c4[n]3[Fe]([Cl])[n]3c(c(C)c(CCC(=O)O)c3=CC3=NC(=C4)C(C)=C3CCC(=O)O)=CC1=N2 [Hm, hemin]
- Kd: 18.4 ± 4.66 µM
